# Permeability data for macrocyclic peptides

Values of Kelly et al. 2021, doi:10.1021/jacs.0c06115, as listed in CycPeptMPDB.

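Conditions beyond the assay type are not listed; see the original paper. Other peptides of the study may be missing here. Entries at the database's floor value (log10 P of -10) are not listed.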

PAMPA measures passive passage through an artificial lipid membrane.
P is given in units of 10^-6 cm/s (from log10 values with two decimals); larger means faster passage.

{"smiles": "CC(=O)N1CCC[C@@H]1C(=O)N(C)[C@H](CC(C)C)C(=O)N[C@@H]1C(=O)N[C@H](CC(C)C)C(=O)N[C@H](CC(C)C)C(=O)N[C@H](CC(C)C)C(=O)N[C@H](C)C(=O)N[C@H](CC(C)C)C(=O)N2CCC[C@H]2C(=O)O[C@@H]1C", "PAMPA (10^-6 cm/s)": "0.36"}
{"smiles": "CC(=O)N1CCC[C@@H]1C(=O)N(C)[C@H](CC(C)C)C(=O)N[C@@H]1C(=O)N(C)[C@@H](CC(C)C)C(=O)N(C)[C@H](CC(C)C)C(=O)N[C@@H](CC(C)C)C(=O)N(C)[C@H](C)C(=O)N[C@H](CC(C)C)C(=O)N2CCC[C@H]2C(=O)O[C@@H]1C", "PAMPA (10^-6 cm/s)": "2.3"}
{"smiles": "CC(=O)N1CCC[C@H]1C(=O)N(C)[C@H](CC(C)C)C(=O)N[C@@H]1C(=O)N[C@H](CC(C)C)C(=O)N[C@@H](CC(C)C)C(=O)N(C)[C@H](CC(C)C)C(=O)N[C@@H](C)C(=O)N[C@@H](CC(C)C)C(=O)N2CCC[C@@H]2C(=O)O[C@@H]1C", "PAMPA (10^-6 cm/s)": "6"}
{"smiles": "CC(=O)N1CCC[C@@H]1C(=O)N(C)[C@@H](CC(C)C)C(=O)N[C@@H]1C(=O)N[C@@H](CC(C)C)C(=O)N[C@@H](CC(C)C)C(=O)N[C@@H](CC(C)C)C(=O)N(C)[C@@H](C)C(=O)N[C@@H](CC(C)C)C(=O)N2CCC[C@@H]2C(=O)O[C@@H]1C", "PAMPA (10^-6 cm/s)": "0.37"}
{"smiles": "CC(=O)N1CCC[C@H]1C(=O)N(C)[C@@H](CC(C)C)C(=O)N[C@@H]1C(=O)N(C)[C@H](CC(C)C)C(=O)N(C)[C@@H](CC(C)C)C(=O)N[C@@H](CC(C)C)C(=O)N(C)[C@H](C)C(=O)N[C@H](CC(C)C)C(=O)N2CCC[C@@H]2C(=O)O[C@@H]1C", "PAMPA (10^-6 cm/s)": "1"}
{"smiles": "CC(=O)N1CCC[C@@H]1C(=O)N(C)[C@H](CC(C)C)C(=O)N[C@@H]1C(=O)N[C@H](CC(C)C)C(=O)N(C)[C@H](CC(C)C)C(=O)N(C)[C@H](CC(C)C)C(=O)N(C)[C@H](C)C(=O)N[C@@H](CC(C)C)C(=O)N2CCC[C@H]2C(=O)O[C@@H]1C", "PAMPA (10^-6 cm/s)": "2"}
{"smiles": "CC(=O)N1CCC[C@@H]1C(=O)N(C)[C@@H](CC(C)C)C(=O)N[C@@H]1C(=O)N[C@@H](CC(C)C)C(=O)N[C@@H](CC(C)C)C(=O)N(C)[C@H](CC(C)C)C(=O)N(C)[C@H](C)C(=O)N[C@@H](CC(C)C)C(=O)N2CCC[C@H]2C(=O)O[C@@H]1C", "PAMPA (10^-6 cm/s)": "2.1"}
{"smiles": "CC(=O)N1CCC[C@H]1C(=O)N(C)[C@H](CC(C)C)C(=O)N[C@@H]1C(=O)N(C)[C@H](CC(C)C)C(=O)N[C@@H](CC(C)C)C(=O)N(C)[C@@H](CC(C)C)C(=O)N(C)[C@H](C)C(=O)N[C@@H](CC(C)C)C(=O)N2CCC[C@H]2C(=O)O[C@@H]1C", "PAMPA (10^-6 cm/s)": "7.8"}
{"smiles": "CC(=O)N1CCC[C@H]1C(=O)N(C)[C@@H](CC(C)C)C(=O)N[C@@H]1C(=O)N[C@@H](CC(C)C)C(=O)N[C@H](CC(C)C)C(=O)N(C)[C@@H](CC(C)C)C(=O)N(C)[C@@H](C)C(=O)N[C@@H](CC(C)C)C(=O)N2CCC[C@H]2C(=O)O[C@@H]1C", "PAMPA (10^-6 cm/s)": "0.36"}
{"smiles": "CC(=O)N1CCC[C@H]1C(=O)N[C@@H]1C(=O)N(C)[C@H](CC(C)C)C(=O)N(C)[C@@H](CC(C)C)C(=O)N(C)[C@@H](CC(C)C)C(=O)N(C)[C@@H](CC(C)C)C(=O)N(C)[C@@H](C)C(=O)N[C@@H](CC(C)C)C(=O)N2CCC[C@@H]2C(=O)O[C@@H]1C", "PAMPA (10^-6 cm/s)": "8.5"}
{"smiles": "CC(=O)N1CCC[C@H]1C(=O)N(C)[C@@H](CC(C)C)C(=O)N[C@@H]1C(=O)N[C@H](CC(C)C)C(=O)N[C@H](CC(C)C)C(=O)N[C@H](CC(C)C)C(=O)N(C)[C@H](C)C(=O)N[C@H](CC(C)C)C(=O)N2CCC[C@H]2C(=O)O[C@@H]1C", "PAMPA (10^-6 cm/s)": "0.11"}
{"smiles": "CC(=O)N1CCC[C@@H]1C(=O)N(C)[C@@H](CC(C)C)C(=O)N[C@@H]1C(=O)N[C@@H](CC(C)C)C(=O)N[C@@H](CC(C)C)C(=O)N[C@H](CC(C)C)C(=O)N(C)[C@H](C)C(=O)N[C@H](CC(C)C)C(=O)N2CCC[C@H]2C(=O)O[C@@H]1C", "PAMPA (10^-6 cm/s)": "0.26"}

The first 2 entries again:

| structure (SMILES) | PAMPA (10^-6 cm/s) |
|---|---|
| CC(=O)N1CCC[C@@H]1C(=O)N(C)[C@H](CC(C)C)C(=O)N[C@@H]1C(=O)N[C@H](CC(C)C)C(=O)N[C@H](CC(C)C)C(=O)N[C@H](CC(C)C)C(=O)N[C@H](C)C(=O)N[C@H](CC(C)C)C(=O)N2CCC[C@H]2C(=O)O[C@@H]1C | 0.36 |
| CC(=O)N1CCC[C@@H]1C(=O)N(C)[C@H](CC(C)C)C(=O)N[C@@H]1C(=O)N(C)[C@@H](CC(C)C)C(=O)N(C)[C@H](CC(C)C)C(=O)N[C@@H](CC(C)C)C(=O)N(C)[C@H](C)C(=O)N[C@H](CC(C)C)C(=O)N2CCC[C@H]2C(=O)O[C@@H]1C | 2.3 |